Measurements as given in patent US11648295B2, “Methods of treating diseases resulting from a maladapted stress response” (Cortene Inc., priority 2016, dated 2023).

Tests used:
male Sprague Dawley rats [1] = experiment: Example 6: spontaneous motor activity after s.c. bolus; assay type: in vivo, rat; details: varying doses, normal rats
male Sprague Dawley rats [2] = experiment: Example 1: telemetry of heart rate, blood pressure, body temperature after s.c. bolus; assay type: in vivo, rat; details: normal rats
healthy human subjects [3] = experiment: Example 9: Phase 1 single ascending dose trial, s.c. bolus; assay type: in vivo
Description: In a Phase 1 human single ascending dose clinical trial (2005051), CT38s was dosed by subcutaneous injection (bolus) in cohorts of human subjects (each cohort receiving the same dose; rising dose across cohorts). The purpose of this trial was to determine the maximum tolerated bolus dose of CT38s in healthy human subjects.

male Sprague Dawley rats [4] = experiment: Example 3: gastrointestinal transit of a charcoal meal after s.c. bolus; assay type: in vivo, rat; details: at 30 mins post-dose, normal rats
male Sprague Dawley rats [5] = experiment: Example 2: respiratory rate and tidal volume (plethysmography) after s.c. bolus; details: normal rats
male Sprague Dawley rats [6] = experiment: Example 4: renal function (urine volume and chemistry) after s.c. bolus; assay type: in vivo, rat; details: normal rats
CRFR1 [7] = target: CRFR1 (Homo sapiens, UniProt P34998); experiment: EC50, nmol (% of Emax) | CRFR1
From the text: Table printed on a drawing sheet, FIGURE 10
Title: Pharmacokinetic Parameters
Head of the field: EC50, nmol (% of Emax) | CRFR1
Footnotes: FIGURE 10: Effect of maximum or steady state plasma concentrations (Cmax or Css) of various CRFR2 agonists (CT38, SCP or Ucn2), dosed by subcutaneous bolus (triangles) or intravenous infusion (circles), on the maximum heart rate (HRmax) in healthy subjects (solid lines) or stable congestive heart failure patients (dashed lines). The table provides comparative pharmacokinetic parameters for the CRFR2 agonists.
That is, for strongly potent CRFR2 agonists and relative intermediate plasma concentrations, the loss of the ability to induce a heart rate increase via continuous dosing, was driven by the duration of dosing, and appeared to occur with different selective CRFR2 agonists (e.g., Ucn2, stresscopin), irrespective of the condition of the human subject.
First copying reader's note: Each EC50 cell holds the EC50 in nmol with the % of Emax in brackets after it.
Where the first naming reader finds the target: head: EC50, nmol (% of Emax) | CRFR1

healthy human subjects [8] = details: continuous (i.v. infusion) plasma concentrations, healthy humans, FIG. 10; cited from earlier work
CRFR1 [9] = target: T1, CRFR1 (Homo sapiens, UniProt P34998); experiment: in vitro binding potential for CRFR1 (table of FIG. 10); assay type: biochemical
T1 sequence (P34998 24-415): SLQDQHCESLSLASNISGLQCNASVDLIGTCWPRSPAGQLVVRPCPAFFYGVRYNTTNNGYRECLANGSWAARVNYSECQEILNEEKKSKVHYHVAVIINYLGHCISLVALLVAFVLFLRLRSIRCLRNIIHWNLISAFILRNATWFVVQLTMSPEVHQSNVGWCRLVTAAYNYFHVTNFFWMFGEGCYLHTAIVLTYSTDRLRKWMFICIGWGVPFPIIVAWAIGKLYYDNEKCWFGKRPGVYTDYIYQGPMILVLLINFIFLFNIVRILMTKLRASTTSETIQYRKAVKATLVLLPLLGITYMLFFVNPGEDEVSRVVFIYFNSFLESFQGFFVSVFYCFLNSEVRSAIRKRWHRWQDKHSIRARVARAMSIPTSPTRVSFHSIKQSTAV

CRFR2 = target: T2, CRFR2 (Homo sapiens, UniProt Q13324); experiment: in vitro potency / binding potential for CRFR2 (table of FIG. 10); assay type: biochemical
T2 sequence (Q13324 1-411): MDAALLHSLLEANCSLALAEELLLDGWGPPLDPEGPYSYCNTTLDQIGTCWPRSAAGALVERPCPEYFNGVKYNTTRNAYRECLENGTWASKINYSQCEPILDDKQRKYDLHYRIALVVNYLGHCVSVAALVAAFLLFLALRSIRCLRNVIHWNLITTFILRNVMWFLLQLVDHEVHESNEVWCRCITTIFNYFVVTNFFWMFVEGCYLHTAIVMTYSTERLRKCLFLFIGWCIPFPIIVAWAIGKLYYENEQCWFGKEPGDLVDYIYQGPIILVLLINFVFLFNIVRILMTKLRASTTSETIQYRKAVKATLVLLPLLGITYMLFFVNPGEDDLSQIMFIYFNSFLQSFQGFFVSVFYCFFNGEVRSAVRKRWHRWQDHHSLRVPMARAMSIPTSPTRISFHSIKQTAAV

[10] = test system: stable congestive heart failure patients; details: i.v. infusion over 1 hour; cited from earlier work
[11] = s.c. single daily bolus, varying doses
[12] = bolus dose, healthy human subjects

CC[C@H](C)[C@H](NC(=O)[C@@H](NC(=O)[C@H](CC(=O)O)NC(=O)[C@H](CC(C)C)NC(=O)[C@H](CC(C)C)NC(=O)[C@H](CCCNC(=N)N)NC(=O)[C@H](C)NC(=O)[C@H](CC(N)=O)NC(=O)[C@H](CC(N)=O)NC(=O)[C@H](C)NC(=O)[C@H](C)NC(=O)[C@H](CCC(N)=O)NC(=O)[C@H](CCC(N)=O)NC(=O)[C@H](CCCCN)NC(=O)[C@H](CCC(=O)O)NC(=O)[C@H](CCCCN)NC(=O)[C@H](CCC(=O)O)NC(=O)[C@H](CCC(N)=O)NC(=O)[C@H](CCCCN)NC(=O)[C@H](CCC(=O)O)NC(=O)[C@@H](NC(=O)[C@H](CCC(=O)O)NC(=O)[C@@H](NC(=O)[C@@H](NC(=O)[C@H](CCCCN)NC(=O)[C@H](CCCNC(=N)N)NC(=O)[C@H](CC(C)C)NC(=O)[C@H](CC(C)C)NC(=O)[C@H](CCC(N)=O)NC(=O)[C@H](Cc1ccccc1)NC(=O)[C@@H]1CCCN1C(=O)[C@H](CC(C)C)NC(=O)[C@H](CC(=O)O)NC(=O)[C@@H](NC(=O)[C@H](CO)NC(=O)[C@@H](NC(=O)[C@@H]1CCCN1C(=O)[C@@H]1CCCN1C(=O)CNC(=O)[C@@H]1CCC(=O)N1)[C@@H](C)CC)[C@@H](C)CC)C(C)C)[C@@H](C)CC)[C@@H](C)CC)[C@@H](C)O)C(N)=O [CT38s]
effect on number of vertical movements (male Sprague Dawley rats [1]): significant dose responsive decreases
effect on total distance traveled (male Sprague Dawley rats [1]): significant dose responsive decreases
blood pressure returning to control values (male Sprague Dawley rats [2]; s.c. bolus): ≤ 4 hours post-dose
body temperature returning to control values (male Sprague Dawley rats [2]; s.c. bolus): ≤ 8 hours post-dose
heart rate returning to control values (male Sprague Dawley rats [2]; s.c. bolus): ≤ 4 hours post-dose
time of maximal heart rate relative to vehicle (male Sprague Dawley rats [2]; s.c. bolus): 30 mins post-dose
time of minimal blood pressure relative to vehicle (male Sprague Dawley rats [2]; s.c. bolus): 30 mins post-dose
time of minimal body temperature relative to vehicle (male Sprague Dawley rats [2]; s.c. bolus): 1 hour post-dose
effect on blood pressure (male Sprague Dawley rats [2]; [11]): decreases in blood pressure
effect on body temperature (male Sprague Dawley rats [2]; [11]): decreases in body temperature
effect on heart rate (male Sprague Dawley rats [2]; [11]): significant dose-responsive increases in heart rate
effect on blood pressure (healthy human subjects [3]; [12]): decreased blood pressure
effect on heart rate (healthy human subjects [3]; [12]): transiently increased heart rate
minimum stimulating bolus dose to induce a heart rate increase (healthy human subjects [3]; healthy young males, s.c. injection): 0.2 µg/kg of body weight
plasma concentration rise in any 15-minute period that caused increased heart rate (healthy human subjects [3]; s.c. bolus, healthy human subjects, FIG. 9C): > 0.2 ng/mL
effect on gastrointestinal transit (male Sprague Dawley rats [4]): significant dose-responsive delays in gastrointestinal transit
effect on respiratory rate (male Sprague Dawley rats [5]; at 1 hour post-dose): significant dose-responsive decreases in respiratory rate
respiratory rate returning to control values (male Sprague Dawley rats [5]): ≤ 2 hours post-dose
effect on tidal volume (male Sprague Dawley rats [5]; not shown): smaller changes in tidal volume
renal function: urinary volume and electrolyte excretion (male Sprague Dawley rats [6]; 0-4 hours post-dose): decreased urinary volume and electrolyte excretion
renal function: urinary volume and electrolyte excretion (male Sprague Dawley rats [6]; 4-8 hours post-dose): increased urinary volume and electrolyte excretion

CC[C@H](C)[C@H](N)C(=O)N[C@H](C(=O)N[C@@H](CC(C)C)C(=O)N[C@@H](CO)C(=O)N[C@@H](CC(C)C)C(=O)N[C@@H](CC(=O)O)C(=O)N[C@H](C(=O)N1CCC[C@H]1C(=O)N[C@H](C(=O)NCC(=O)N[C@@H](CC(C)C)C(=O)N[C@@H](CC(C)C)C(=O)N[C@@H](CCC(N)=O)C(=O)N[C@H](C(=O)N[C@@H](CC(C)C)C(=O)N[C@@H](CC(C)C)C(=O)N[C@@H](CCC(=O)O)C(=O)N[C@@H](CCC(N)=O)C(=O)N[C@@H](C)C(=O)N[C@@H](CCCNC(=N)N)C(=O)N[C@@H](C)C(=O)N[C@@H](CCCNC(=N)N)C(=O)N[C@@H](C)C(=O)N[C@@H](C)C(=O)N[C@@H](CCCNC(=N)N)C(=O)N[C@@H](CCC(=O)O)C(=O)N[C@@H](CCC(N)=O)C(=O)N[C@@H](C)C(=O)N[C@H](C(=O)N[C@H](C(=O)N[C@@H](CC(N)=O)C(=O)N[C@@H](C)C(=O)N[C@@H](CCCNC(=N)N)C(=O)N[C@H](C(=O)N[C@@H](CC(C)C)C(=O)N[C@@H](C)C(=O)N[C@@H](CCCNC(=N)N)C(=O)N[C@H](C(N)=O)C(C)C)[C@@H](C)CC)[C@@H](C)O)[C@@H](C)O)[C@@H](C)CC)[C@@H](C)CC)C(C)C)C(C)C [Ucn2, urocortin 2]
EC50, nmol (% of Emax) | CRFR1 (CRFR1 [7]): > 1000 (7.6) nmol (% of Emax)
effect of plasma concentration on heart rate, compared with CT38 bolus (healthy human subjects [8]): much diminished
in vitro binding potential for CRFR1 (CRFR1 [9]): minimal, at high concentrations
EC50 (CRFR2; in vitro, read-out: EC50 (achieves maximal CRFR2 stimulation)): 4.3 nM
in vitro binding potential for CRFR2 (CRFR2; table of FIG. 10): maximal, at low concentrations
pattern of effect on heart rate versus healthy subjects [10]: did not change
